Results taken from PubChem BioAssay AID588795 (National Center for Advancing Translational Sciences (NCATS), 2011).
This is a selection; strong and weak results do not stand in their true shares. Activity calls are given as the source filed them. The call rests on the fitted dose curve; in most records, active means well fitted inhibition curve with a large enough effect; inconclusive means small, poorly fitted or top-dose-only effect; inactive means no such curve, though single readings can be large or run the other way.

By UniProt entry, the sequences of proteins in these tests, tags left out.
UniProt P39748, whole entry: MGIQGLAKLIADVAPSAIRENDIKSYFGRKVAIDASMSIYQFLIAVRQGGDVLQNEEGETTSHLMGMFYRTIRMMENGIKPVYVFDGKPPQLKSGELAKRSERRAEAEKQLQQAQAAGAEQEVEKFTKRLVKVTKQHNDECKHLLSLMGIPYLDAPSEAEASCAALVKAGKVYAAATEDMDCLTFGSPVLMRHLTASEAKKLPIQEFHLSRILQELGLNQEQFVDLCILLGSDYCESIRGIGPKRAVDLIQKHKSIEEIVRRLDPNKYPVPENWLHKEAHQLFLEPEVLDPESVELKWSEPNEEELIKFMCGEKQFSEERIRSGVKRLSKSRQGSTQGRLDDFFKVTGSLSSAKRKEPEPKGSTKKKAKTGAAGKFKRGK

molecular target: Flap endonuclease 1 (Homo sapiens) (UniProt P39748); assay: qHTS Assay for the Inhibitors of Human Flap endonuclease 1 (FEN1).; further: nearly all actives have a fitted effect of over 65% in size; conditions: Recombinant FEN1 flap cleavage, fluorescence, 15 min; series mostly up to 114 µM; activity change, negative = inhibition: at the top concentration
On the % scale 0 is the no-effect control and ±100 the full control effect; potency means the concentration at half of the fitted maximal effect.

Compound	activity change, negative = inhibition	Potency
CCN(CC)CCCOC(=O)C(O)(c1ccccc1)c1ccccc1	inactive: -12.3%	
Cc1cc(C)cc(OP(C)(N)=O)c1 (stereo unspecified)	inactive: 11.9%	
COc1ccccc1OP(C)(=O)Nc1cc(Cl)ccc1C (stereo unspecified)	inactive: -2.82%	
COc1ccc(OP(C)(=O)Nc2cccc(F)c2)cc1 (stereo unspecified)	inactive: -2.24%	
COc1ccccc1OP(C)(=O)Nc1ccc(C)cc1 (stereo unspecified)	inactive: 2.49%	
Cc1ccc(NP(C)(=O)Oc2ccccc2)c(C)c1 (stereo unspecified)	inactive: -13.7%	
CCOC(=O)c1ccc(NP(C)(=O)Oc2ccccc2)cc1 (stereo unspecified)	inactive: -1.23%	
O=[N+]([O-])c1ccc2c(c1)C=Nc1ccccc1O2	inactive: -0.388%	
CC(C)(C)c1ccc(OP(C)(=O)Nc2ccc(SC(F)(F)F)cc2)cc1 (stereo unspecified)	inactive: -32.7%	
O=[N+]([O-])c1cc([N+](=O)[O-])c(Nc2cccnc2)c([N+](=O)[O-])c1	inactive: 4.53%	
CP(=O)(Nc1ccccc1Br)Oc1ccccc1 (stereo unspecified)	inactive: 4.97%	
COc1ccccc1OP(C)(=O)Nc1ccccc1 (stereo unspecified)	inactive: 1.18%	
CP(=S)(Nn1cnnc1)Oc1ccccc1 (stereo unspecified)	inactive: 0.572%	
CP(=O)(Nc1ccccn1)Oc1ccc(Cl)cc1 (stereo unspecified)	inactive: -5.02%	
CCOC(=O)c1ccc(NP(C)(=O)Oc2ccc(OC)cc2)cc1 (stereo unspecified)	inactive: 3.36%	
O=[N+]([O-])c1cc([N+](=O)[O-])c(O)c([N+](=O)[O-])c1.c1ccc(Oc2ccncc2)cc1	inactive: 1.62%	
CP(=O)(NC(=O)Nc1ccccc1)Oc1ccccc1 (stereo unspecified)	inactive: -0.596%	
CCc1ccc(OP(C)(=O)N2CCN(c3ccc([N+](=O)[O-])cc3)CC2)cc1 (stereo unspecified)	inactive: -12%	
Cc1cccc(C)c1OP(C)(=O)Nc1ccc(SC(F)(F)F)cc1 (stereo unspecified)	inactive: 8.61%	
CP(=O)(Nc1ccc(SC(F)(F)F)cc1)Oc1ccc(Cl)cc1 (stereo unspecified)	inactive: -12.2%	
CP(=O)(Oc1ccccc1)OC(c1ccccc1)C(F)(F)F (stereo unspecified)	inactive: -7.44%	

Compound	activity change, negative = inhibition	Potency
Cc1nc2ccc3ccccc3c2s1.O=[N+]([O-])c1cc([N+](=O)[O-])c(O)c([N+](=O)[O-])c1	inactive: 1.69%	
O=[N+]([O-])c1cc([N+](=O)[O-])c(-c2cnn(-c3ccccc3)c2)c([N+](=O)[O-])c1	inactive: 1.24%	
O=[N+]([O-])c1cc([N+](=O)[O-])c(-n2nnc3ccccc32)c([N+](=O)[O-])c1	inactive: 9.94%	
CCCOc1ccc(NP(C)(=O)Oc2ccc(Cl)cc2)cc1 (stereo unspecified)	inactive: -9.94%	
CP(=O)(Nc1ccc(SC(F)(F)F)cc1)Oc1ccccc1 (stereo unspecified)	inactive: -12.7%	
COc1ccccc1OP(C)(=O)Nc1c(C)cccc1C (stereo unspecified)	inactive: 5.55%	
CN1CCCCC1COC(=O)C1(O)c2ccccc2CCc2ccccc21 (stereo unspecified)	inactive: -2.48%	
CC1=C2N=C(C=C3N=C(C(C)=C4[N-][C@@](C)([C@@H]5N=C1[C@](C)(CCC(=O)NC[C@@H](C)OP(=O)([O-])O[C@H]1[C@@H](O)[C@@H](n6cnc7cc(C)c(C)cc76)O[C@@H]1CO)[C@H]5CC(N)=O)[C@@](C)(CC(N)=O)[C@@H]4CCC(N)=O)[C@@](C)(CC(N)=O)[C@@H]3CCC(N)=O)C(C)(C)[C@@H]2CCC(N)=O.[C-]#N.[Co+3]	inactive: -1.82%	
O=[N+]([O-])c1cc([N+](=O)[O-])c(Nc2nnnn2CCO)c([N+](=O)[O-])c1	inactive: -13.8%	
CC1=NCCc2c1[nH]c1ccccc21.O=[N+]([O-])c1cc([N+](=O)[O-])c(O)c([N+](=O)[O-])c1	inactive: -3.38%	
Cc1ccc(C)c(NP(C)(=O)Oc2ccccc2)c1 (stereo unspecified)	inactive: 2.4%	
Cc1cc(C)cc(OP(C)(=O)Nc2ccccn2)c1 (stereo unspecified)	inactive: -12.5%	
CP(=O)(Nc1cccc(Br)c1)Oc1ccccc1 (stereo unspecified)	inactive: -2.75%	
CCOC(=O)c1ccc(NP(C)(=O)Oc2cc(C)cc(C)c2)cc1 (stereo unspecified)	inactive: -6.45%	
Cc1cc(C)cc(OP(C)(=O)Nc2ccc(C)cc2C)c1 (stereo unspecified)	inactive: -1.25%	
COc1ccccc1OP(C)(=O)Nc1cccc(Br)c1 (stereo unspecified)	inactive: -3.24%	
O=C(OCCN1CCN(CCOCc2ccccc2)CC1)C(O)(c1ccccc1)c1ccccc1	inactive: -2.17%	
CC(C)c1ccc(OP(C)(=O)Nc2ccc(SC(F)(F)F)cc2)cc1 (stereo unspecified)	inactive: -18.6%	
CP(=O)(Nc1ccccc1)Oc1ccc(F)cc1 (stereo unspecified)	inactive: 1.01%	
CCCCCOc1ccc(NP(C)(=O)Oc2ccc(Cl)cc2Cl)cc1 (stereo unspecified)	inactive: -10.8%	
Cc1c([N+](=O)[O-])cc([N+](=O)[O-])c(Br)c1[N+](=O)[O-]	inactive: -5.02%	

Compound	activity change, negative = inhibition	Potency
CCN(CC)CCCOC(=O)C(O)(c1ccccc1)C1CCCCC1 (stereo unspecified)	inactive: 8.75%	
CCOC(=O)c1ccc(NP(C)(=O)Oc2ccc(F)cc2)cc1 (stereo unspecified)	inactive: 0.872%	
COc1ccc(OP(C)(=O)Nc2ccc(SC(F)(F)F)cc2)cc1 (stereo unspecified)	inactive: -7.18%	
Cc1c(C(c2ccc3c(c2)OCO3)c2c(C)n(C)n(-c3ccccc3)c2=O)c(=O)n(-c2ccccc2)n1C.O=[N+]([O-])c1cc([N+](=O)[O-])c(O)c([N+](=O)[O-])c1	inactive: 11.5%	
O=[N+]([O-])c1ccc(OP2(=O)COCCO2)cc1 (stereo unspecified)	inactive: -6.82%	
Cc1cc(-c2cccc3ccccc23)c(C)cn1.O=[N+]([O-])c1cc([N+](=O)[O-])c(O)c([N+](=O)[O-])c1	inactive: 12.3%	
CN(C)CCOC(=O)C(O)(c1ccccc1)C1CCCCC1 (stereo unspecified)	inactive: -0.323%	
COc1ccc(NP(C)(=O)Oc2ccccc2OC)cc1 (stereo unspecified)	inactive: 0.0824%	
COc1ccc(OP(C)(=O)Nc2cccc(Br)c2)cc1 (stereo unspecified)	inactive: -4.05%	
Cc1ccccc1NP(C)(=O)Nc1ccccc1C	inactive: 4.27%	
CP(=O)(Nc1ccc2c(c1)OCCO2)Oc1ccccc1 (stereo unspecified)	inactive: 5.43%	
CCOP(C)(=S)SCC(=O)NC(C)(CC)C(=O)O (stereo unspecified)	inactive: 9.25%	
CP(=O)(Nc1ccc(SC(F)(F)F)cc1)Oc1ccc(F)cc1 (stereo unspecified)	inactive: 1.95%	
CN(C)C(=O)c1c([N+](=O)[O-])cc([N+](=O)[O-])cc1[N+](=O)[O-]	inactive: -0.616%	
COc1ccccc1OP(C)(=O)Nc1ccccc1Br (stereo unspecified)	inactive: 2.66%	
CC(C)(C)c1ccc(OP(C)(=O)O)cc1	inactive: -4.93%	
CP(=O)(Nc1ccc(Cl)cc1)Oc1ccc(F)cc1 (stereo unspecified)	inactive: 2.72%	
COc1ccccc1OP(C)(=O)Nc1c(C)n(C)n(-c2ccccc2)c1=O (stereo unspecified)	inactive: -2.83%	
O=C(OCCCN1CCCC1)C(O)(c1ccccc1)C1CCCCC1 (stereo unspecified)	inactive: 11.8%	
CP(=O)(Oc1ccccc1)N1CCOC1=O (stereo unspecified)	inactive: -0.642%	
CCc1ccc(OP(C)(=O)Nc2cccnc2)cc1 (stereo unspecified)	inactive: 0.693%	

Compound	activity change, negative = inhibition	Potency
CCN(CC)CC(O)COC(=O)C(O)(c1ccccc1)C1CCCCC1 (stereo unspecified)	inactive: -0.391%	
COc1ccc(OP(C)(=O)Nc2ccc(Br)cc2)cc1 (stereo unspecified)	inactive: 10.8%	
CCOC(=O)c1ccc(NP(C)(=O)Oc2ccc(Cl)cc2)cc1 (stereo unspecified)	inactive: -4.74%	
CP(=O)(OC12CC3CC(CC(C3)C1)C2)OC12CC3CC(CC(C3)C1)C2	inactive: 5.93%	
Nc1ccc2c(ccc3cccnc32)n1.O=[N+]([O-])c1cc([N+](=O)[O-])c(O)c([N+](=O)[O-])c1	inactive: -32.4%	
CCCCCCCCCCCCCCCC1C[N+](C)(C)CCOP(C)(=O)O1 (stereo unspecified)		active: 79.4 µM
CP(=O)(Nc1ccc(Cl)cc1Cl)Oc1ccccc1 (stereo unspecified)	inactive: 1.41%	
CP(=O)(OCCOc1ccccc1)OCCOc1ccccc1	inactive: -9.01%	
COc1ccccc1OP(C)(=O)Nc1ccc(C)c(C)c1 (stereo unspecified)	inactive: -0.0256%	
COc1ccc(OP(C)(=O)Nc2ccccc2Br)cc1 (stereo unspecified)	inactive: 12%	
Cc1cc(C)cc(OP(C)(=O)Nc2cccc(C(F)(F)F)c2)c1 (stereo unspecified)	inactive: -12.7%	
CP(=O)(Nc1ccccn1)Oc1ccccc1 (stereo unspecified)	inactive: -4.96%	
COc1ccccc1OP(C)(=O)Nc1ccc(C)cc1C (stereo unspecified)	inactive: -7.26%	
CCc1ccc(OP(C)(=O)O)cc1	inactive: 5.99%	
Cc1c(NP(C)(=O)Oc2ccc(C(C)C)cc2)c(=O)n(-c2ccccc2)n1C (stereo unspecified)	inactive: 0.692%	
COc1ccc(OP(C)(=O)Nc2ccccn2)cc1 (stereo unspecified)	inactive: -2.66%	
CN(C)CCOC(=O)C(O)(c1ccccc1)C1CCCC1 (stereo unspecified)	inactive: -17.2%	
COc1ccccc1OP(C)(=O)Nc1ccc(Br)cc1 (stereo unspecified)	inactive: -3.73%	
